Reference: ChEMBL document CHEMBL4041501, “Isolation of Acacetin from Calea urticifolia with Inhibitory Properties against Human Monoamine Oxidase-A and -B” (J Nat Prod, 2016)

Sequences of proteins named here, by UniProt entry; tags and fusion partners are left off.
UniProt P27338, whole entry: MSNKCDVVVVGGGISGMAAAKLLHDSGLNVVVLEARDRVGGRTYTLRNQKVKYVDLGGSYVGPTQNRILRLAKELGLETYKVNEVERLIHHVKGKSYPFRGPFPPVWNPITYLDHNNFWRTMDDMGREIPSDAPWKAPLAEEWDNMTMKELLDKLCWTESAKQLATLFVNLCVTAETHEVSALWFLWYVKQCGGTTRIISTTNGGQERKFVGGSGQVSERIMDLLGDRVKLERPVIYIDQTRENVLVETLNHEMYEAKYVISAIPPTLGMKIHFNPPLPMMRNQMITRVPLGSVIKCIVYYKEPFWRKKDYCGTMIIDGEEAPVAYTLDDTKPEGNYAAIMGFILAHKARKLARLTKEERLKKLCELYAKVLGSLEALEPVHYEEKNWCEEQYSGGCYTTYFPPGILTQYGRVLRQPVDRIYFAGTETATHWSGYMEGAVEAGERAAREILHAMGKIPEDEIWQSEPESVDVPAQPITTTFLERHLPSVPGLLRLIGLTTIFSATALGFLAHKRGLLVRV
UniProt P21397, whole entry: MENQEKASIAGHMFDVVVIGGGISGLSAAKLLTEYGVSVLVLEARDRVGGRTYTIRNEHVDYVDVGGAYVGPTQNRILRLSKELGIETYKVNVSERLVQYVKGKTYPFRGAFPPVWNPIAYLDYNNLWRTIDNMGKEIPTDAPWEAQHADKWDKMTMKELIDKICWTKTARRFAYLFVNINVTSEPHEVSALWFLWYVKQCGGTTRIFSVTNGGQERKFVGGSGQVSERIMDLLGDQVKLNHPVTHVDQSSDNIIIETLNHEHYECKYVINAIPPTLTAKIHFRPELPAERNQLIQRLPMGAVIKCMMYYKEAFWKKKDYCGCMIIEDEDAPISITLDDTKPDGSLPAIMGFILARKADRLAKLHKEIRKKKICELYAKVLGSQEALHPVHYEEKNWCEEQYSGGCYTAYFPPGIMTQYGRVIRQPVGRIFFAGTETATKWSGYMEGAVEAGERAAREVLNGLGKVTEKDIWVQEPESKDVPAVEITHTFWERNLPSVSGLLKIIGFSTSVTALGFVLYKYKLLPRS

What was measured:
[1] = target: Amine oxidase [flavin-containing] B (Homo sapiens, UniProt P27338)
[2] = target: Amine oxidase [flavin-containing] A (Homo sapiens, UniProt P21397)

Work on `NNCCc1ccccc1` [PHENELZINE] yielded a Ki [1] of 124 nM and a Ki [2] of 163 nM.
